Target: Purified human plasmin (human)
Experiment: protease inhibition assay (residual amidolytic activity, tight-binding inhibitor fit); enzyme (plasmin 3 nM; FVIIa/sTF 20 nM; pKLK and FXIa 1 nM each) incubated with inhibitor (10^-1 to 2 x 10^3 nM; up to 3 µM in Figure 3B) for 1 h at room temperature in TBS pH 7.5 (50 mM Tris-HCl, 100 mM NaCl), 0.1 mg BSA/mL, 2 mM Ca2+; synthetic substrate added to 1 KM; Ki corrected for substrate

With “Aprotinin (bovine pancreatic trypsin inhibitor, BPTI) (from UniProt P00974 36-93) (natural protein)” as the substance, how does the Ki read?
The Ki was 0.49 nM.

Reference: publication PMC7698382
